From US20230071934A1, “NOVEL USES” (Intra-Cellular Therapies, Inc., priority 2019, published 2023)

Target: bovine brain PDE1 (Bos taurus, UniProt Q01061)

CN1C(=O)c2c(nn(Cc3ccc(-c4cccc(F)n4)cc3)c2Nc2ccccc2)N2C1=N[C@@H]1CCC[C@@H]12 [Compound 214, (6aR,9aS)-5,6a,7,8,9,9a-hexahydro-5-methyl-3-(phenylamino)-2-((4-(6-fluoropyridin-2-yl)phenyl)methyl)-cyclopent[4,5]imidazo[1,2-a]pyrazolo[4,3-e]pyrimidin-4(2H)-one]
IC50: 0.058 nM
